Chains of the proteins cited; added tags and fusions are not shown.
UniProt P08172, whole entry: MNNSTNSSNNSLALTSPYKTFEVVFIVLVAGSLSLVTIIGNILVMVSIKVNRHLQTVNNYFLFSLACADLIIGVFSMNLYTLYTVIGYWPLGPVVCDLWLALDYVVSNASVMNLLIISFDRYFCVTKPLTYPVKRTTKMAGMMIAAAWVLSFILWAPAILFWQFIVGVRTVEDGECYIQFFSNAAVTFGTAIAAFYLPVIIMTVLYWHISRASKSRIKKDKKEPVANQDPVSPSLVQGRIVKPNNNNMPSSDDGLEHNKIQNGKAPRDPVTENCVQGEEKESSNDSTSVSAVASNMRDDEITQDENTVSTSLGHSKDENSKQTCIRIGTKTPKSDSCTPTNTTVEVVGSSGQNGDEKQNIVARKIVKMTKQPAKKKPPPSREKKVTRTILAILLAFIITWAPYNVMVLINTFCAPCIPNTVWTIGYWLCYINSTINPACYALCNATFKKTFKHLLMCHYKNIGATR

According to US20030175810A1, “Assay method and system for identification of P2Y receptor agonists and antagonists” (priority 2000, published 2003):

Biological target: m2-muscarinic receptors (Homo sapiens, UniProt P08172)
Assay: GTPase activity of vesicles reconstituted with purified m2-muscarinic receptors and Gαo
Format: biochemical

stimulation of GTPase activity: marked stimulation
Structure (SMILES): C[N+](C)(C)CCOC(N)=O [carbachol]
